The values that follow are results of earlier work, collected in US20040043919A1, “Method for the treatment of neurological and neuropsychological disorders” (priority 2003, published 2004).

Sequences of proteins named here, by UniProt entry; tags and fusion partners are left off.
UniProt P21555, whole entry: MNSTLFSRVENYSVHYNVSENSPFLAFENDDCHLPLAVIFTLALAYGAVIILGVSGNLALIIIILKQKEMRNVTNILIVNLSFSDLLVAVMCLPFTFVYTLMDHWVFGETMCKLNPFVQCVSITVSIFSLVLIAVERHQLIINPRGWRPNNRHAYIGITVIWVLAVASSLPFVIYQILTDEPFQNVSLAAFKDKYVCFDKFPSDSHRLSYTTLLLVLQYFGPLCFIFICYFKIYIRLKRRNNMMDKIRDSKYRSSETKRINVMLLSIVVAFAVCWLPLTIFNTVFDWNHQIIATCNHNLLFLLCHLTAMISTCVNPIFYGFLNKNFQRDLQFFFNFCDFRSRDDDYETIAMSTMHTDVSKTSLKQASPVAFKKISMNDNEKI

For the data set, the target named is T1, NPY Y1 receptor (Rattus norvegicus, UniProt P21555).
T1 construct: i.c.v. injection of the Y1 antagonist; host or cells: living animal (brain, i.c.v. injection)
Conditions: i.c.v. injection; without any locomotor deficit; cited from earlier work.

In the case of `NC(N)=NCCC[C@@H](NC(=O)C(c1ccccc1)c1ccccc1)C(=O)NCc1ccc(O)cc1` [BIBP3226], the “Effect in the elevated plus-maze test” value is “anxiogenic-like effects”.
